## Ab-14 heavy chain CDR variants: yeast mating affinities

Target: peptide PDVDLGDISGINAS, taken from heptad repeat 2 (HR2) of SARS-CoV-2 spike.

The variants keep the light chain, the linker and the frameworks of Ab-14 (scFv order VH, a 15-residue (Gly4Ser)3 linker, VL).
VH: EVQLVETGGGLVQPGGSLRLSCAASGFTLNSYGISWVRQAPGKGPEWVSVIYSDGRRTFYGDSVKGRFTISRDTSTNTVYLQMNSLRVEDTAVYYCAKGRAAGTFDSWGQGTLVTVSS
VL: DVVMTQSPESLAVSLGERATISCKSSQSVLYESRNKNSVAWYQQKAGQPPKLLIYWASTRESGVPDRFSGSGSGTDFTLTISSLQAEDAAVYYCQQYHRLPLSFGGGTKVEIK

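The variants were designed computationally from a first round of random CDR variants and then made and measured. Group labels follow the data file (Ctrl: baseline library sampled from a position-specific scoring matrix, with some repeated check sequences; Rand: our label for a block that the file lists under HC and that is probably the random mutants of the ten best first-round binders; En: ensemble of fine-tuned language models; GP: Gaussian process model; GPLM: also part of the Gaussian process libraries; HC: hill climbing; Gen: genetic algorithm; Gibbs: Gibbs sampling; a sequence that several methods proposed may carry one label only). The scFvs were displayed on barcoded MATa yeast, the peptide on MATalpha yeast. Pairs that bind mate more often; barcode pairs of the diploids are counted by sequencing. Scores were corrected for input abundance and mapped to Kd with protein pairs of known affinity run in the same pool. Mating was done six times.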

Variants are written as CDR1, CDR2 and CDR3 of the heavy chain (limits as in the source). Parent: GFTLNSYGIS, VIYSDGRRTFYGDSVK, GRAAGTFDS. The Kd shown is the geometric mean over detected replicates; a lower Kd is a better binder. An entry "nd" has no value in the source: the pair was not observed among the diploids in any replicate. This suggests poor binding but is not conclusive. Nonspecific signal, from three strains lacking the peptide, appeared in 1% of pairings of all heavy chain designs, centred on 120 nM (5% of these signals below 7.0 nM); values are not corrected for it. The range of this assay differs from that of the first round, and the authors advise against merging the two. In the paper, a design with two or fewer of six values counts as a poor binder. A sequence that the file lists under several names has all its replicates pooled.

CDR-H1	CDR-H2	CDR-H3	group	Kd	seen in
GFDLNSYGIS	VIYSDGRRTFYGDSVK	GRRAGRFDS	GP_HC	nd	0 of 6
GFDINEYGIS	VIYADGQREAYAESVK	GFNQTINLV	En_Gibbs	nd	0 of 6
GFDLEEYGIS	VIYADGIRQYAQDNVK	GLLSGMGIT	En_Gibbs	2.9 nM	6 of 6
GFDLNEYGIS	VIYADGRRTAYIDSVK	GHAAGTFDA	En_HC	360 pM	6 of 6
HFTLNSYGIS	VIYSDGRRTFYGDSVK	GYAAGTFES	Ctrl	nd	0 of 6
GVDIDEYGIS	VIYADGIRTFYIDKVK	GNVGGQFDM	En_Gibbs	nd	0 of 6
GFDLNEYGIS	VIYADGRRTFYSDSVK	GEVAGTFVS	En_HC	310 pM	6 of 6
GFTLNEYGIS	VIYSDGRRTFYGDSVK	GRFAGTFSS	GPLM_HC	nd	0 of 6
GFDLNEYGIS	VIYADGRRTFYSDSVK	GEIAGFFDV	En_HC	770 nM	1 of 6
GFSLNSYGIS	VIYSDGRRTFYQDSVK	GTAAGTFDS	GPLM_Gen	1.6 nM	6 of 6
GFELNSYGIS	VMYSDGRRTAYADSVK	GRAAGTFDS	Ctrl	1.7 nM	6 of 6
GFTLNSYGIS	VIYSDGRRTFYTDSVK	GRAAGHFDS	Ctrl	nd	0 of 6
GFELNSYGIS	VIYSDGRREFYGDSVK	GSAAGTFDS	Ctrl	76 nM	2 of 6
GFDLDEYGIS	VIYADGRRTFYADSVK	GEAAGTFDL	En_HC	13 nM	6 of 6
GFTLDSYGIS	VIYSDGRRTFYGDHVK	GRAAGTALS	Rand	nd	0 of 6
GFDLNEYGIS	VIYADGRRTFYADSVK	GKIAGTFNM	En_HC	690 pM	4 of 6
GFTLNSYGIS	VIYSDGKRTFYGDDVK	GRVAGTFDK	GP_Gibbs	13 nM	5 of 6
GFDLNEYGIS	VIYADGRRTAYVDSVK	GENAGTFDV	En_Gen	390 pM	6 of 6
GFDLNEYGIS	VIYADGLRTSYADSVK	GQNAGTFDI	En_HC	30 pM	6 of 6
GFDLNEYGIS	VIYADGMRTYYADSVK	GENAGTFDM	En_Gen	520 pM	6 of 6
GFNLDEYGIS	VIYADGQRTAYADSVK	GEVAGTFDV	En_Gen	470 pM	6 of 6
GFSLNEYGIS	VIYSDGRRTFYGDSVK	GKTAGTFDS	GPLM_Gen	290 nM	1 of 6
GFGLNSYGIS	VIYSDGRRTFYADSVK	GRTAGTFDS	GPLM_Gen	1.3 nM	6 of 6
GFTLNSYGIN	VIYSDGRRTFYGDSVK	GRAAGTFDS	Ctrl	nd	0 of 6
GFDLNEYGIS	VIYADGMRTQYIDSVK	GNAAGTFDE	En_HC	nd	0 of 6
KFDLNSYGIS	VIYSDGRRTFYADSVK	GRMAGTFDS	GP_Gibbs	2.9 nM	6 of 6
GFDLNEYGIS	VIYADGQRKAYADSVK	GENAGTFDI	En_Gen	130 pM	6 of 6
GFDLDEYGIS	VIYADGVRTAYSDSVK	GETAGTFDV	En_Gen	530 pM	6 of 6
GFTLNSYGIS	VIYSDGRRTFYGDSVK	GRAAGFFDS	Ctrl	nd	0 of 6
GEVLDEYGIS	VIYADGQRVQYTDAVK	GLLTGAFDM	En_Gibbs	nd	0 of 6
GFDLNEYGIS	VIYADGMRKAYADDVK	GSNAGTFDV	En_Gen	200 pM	6 of 6
GQHLDEYGIS	VIYADGMRKYYADNVK	GKSVFSIII	En_Gibbs	1.3 nM	5 of 6
GFTLNSYGIS	VIYSDGRRTFYGDSVK	GTLAGTFDS	Ctrl	3.8 nM	6 of 6
GFSLNSYGIS	VIYSDGRRTAYGDSVK	GRTAGTFDS	GPLM_Gen	1.7 nM	6 of 6
GFDLNEYGIS	VIYADGKRTFYSDSVK	GEAAGTFDQ	En_HC	310 pM	6 of 6
GFTLNQYGKS	VIYSDGRRTSYSDSVK	GRAAGFFDS	Rand	nd	0 of 6
GFDLNEYGIS	VIYADGKRTAYANSVK	GENAGTFDV	En_Gen	nd	0 of 6
GYDIDEYGIS	VIYADGQRTAYQNAVK	GEQDGIMMY	En_Gibbs	nd	0 of 6
GFTLESYGIS	VIYADGRRTFYGDRVK	GQAAGTFDS	GP_Gibbs	660 pM	6 of 6

Continued, with the values leading:

Kd	seen in	CDR-H1	CDR-H2	CDR-H3	group
nd	0 of 6	GMDLEEYGIS	VIYADGMRTAAVDSVK	GDQSGTLVY	En_Gibbs
870 pM	6 of 6	GFTLNSYGIS	VIYSDGKRTFYGDSVK	GRTAGTFDM	GP_Gen
21 nM	6 of 6	GEDLDEYGIS	VIYADGRRVVYQDQFK	GELAGTVDQ	En_Gibbs
540 pM	6 of 6	GFDLNEYGIS	VIYADGMRTAYSDSVK	GNIAGTFDI	En_Gen
nd	0 of 6	GDSLNEYGIS	VIYADGLRSYYINSVK	GEVDGLFSQ	En_Gibbs
nd	0 of 6	NFTLNEYGIS	VIYSNGRRYFYTDSVK	GRFAGTFDS	Rand
250 nM	1 of 6	GFTLNDYGIS	VIYSDGRRTFYGDSFK	GFAAGTFDS	Ctrl
nd	0 of 6	GFTLYIYGIS	VIRSDFRRTFYGDSVK	GRAAVTFDQ	Rand
310 nM	5 of 6	HFNLNSYGIS	VIYSDGRRTFYGDSVK	GRQAGTFDS	GP_Gen
nd	0 of 6	GFTLNSYGKS	VIYSDGRRTFYSDSVK	KRAGGTFDS	Rand
2.2 nM	6 of 6	GFNLNSYGIS	VIYSDGRRTFYVDSVK	GRTAGTFDT	GP_Gen
3.2 nM	6 of 6	GFELNSYGIS	VIYSDGRRTFYGDAVK	GRTAGTFDS	GPLM_Gen
42 nM	6 of 6	GFVLNDYGIS	VIYSDGRRTYYGDSVK	GRAAGTFDS	GP_HC
960 pM	6 of 6	GFDLDEYGIS	VIYADGKRTAYSDSVK	GNEAGTFDV	En_Gen
230 pM	6 of 6	GFDLDEYGIS	VIYADGVRTAYADNVK	GNVAGTFDV	En_Gen
nd	0 of 6	GFKIDEYGVS	VIYADGIRRAYADNVK	GYTDDAFDM	En_Gibbs
42 nM	6 of 6	GFKLNSYGIS	VIYSDGRRTAYGDSVK	GRAAGTFDT	Ctrl
nd	0 of 6	GNDIQEYGIS	VIYADGQRVNAVSQVK	GKQAGTFNL	En_Gibbs
35 nM	6 of 6	GFWLNEYGIS	VIYSDGRRTFYKDSVK	GQAAGTFDS	GP_Gibbs
190 pM	5 of 6	KFDIEEYGIS	VIYADGKRTSYSNAVK	GNQGGTFNT	En_Gibbs
520 pM	6 of 6	GFNLNEYGIS	VIYADGVRTFYADSVK	GEHAGSFDI	En_HC
58 nM	5 of 6	MFDLNSYGIS	VIYSDGRRTFYGDSVK	GQEAGTFDS	GP_Gen
nd	0 of 6	GFTLMEYGIS	VIYSDGRRTFYTDSVK	GRFAGTFDS	Rand
610 pM	6 of 6	GFDLNEYGIS	VIYADGRRTFYADSVK	GGNAGTFDV	En_HC
45 nM	2 of 6	GFELNEYGIS	VIYSDGRRTMYGDSVK	GRCAGTFDS	GP_HC
220 pM	6 of 6	GFDLNEYGIS	VIYADGRRTFYADSVK	GKLAGTFDQ	En_HC
830 nM	1 of 6	GFTLNDYGIS	VIYSDGFRTQYMDSVK	GRAANTIDS	Rand
280 pM	12 of 12	GFTLNEYGIS	VIYADGRRTFYGDSVK	GRAAGTFDS	Ctrl+GPLM_Gen
3.2 nM	1 of 6	GFTLNSYGIS	VIYSDGKRTFYIDSVK	GRDKGTFSS	Ctrl
58 nM	3 of 6	GFELTEYGIS	VIYADGHRSFVTDTVK	GQQAGAFNV	En_Gibbs
1.6 nM	6 of 6	GFTLESYGIS	VIYSDGRRTFYADSVK	GREAGTFDT	GP_Gen
300 pM	6 of 6	GFDLNEYGIS	VIYADGRRTFYADSVK	GNEAGTFNM	En_HC
2.3 nM	6 of 6	GFSVNSYGIS	VIYSDGRRTFYEDNVK	GRAAGTFDQ	Ctrl
1.4 nM	6 of 6	GFTLNSYGIS	VIYSDGRRTFYGDSVK	GSEAGTFDT	GPLM_Gen
nd	0 of 6	GFDLNSYGIS	VIYSDGMRTFYSDSVK	GRAMGTFDS	Ctrl
120 nM	5 of 6	GFTLNSYGIS	VIYSDGRRTFYGDSVK	GAAAGTFDV	Ctrl
nd	0 of 6	GMNIDEYGIS	VIYADGMRTAYSNAVK	GIVGGDTTS	En_Gibbs
710 pM	6 of 6	GQLLDDYGIS	VIYADGKRVAYVDDVK	GNVAGTFDM	En_Gibbs
nd	0 of 6	GFTLNEYGIS	VIYSDGRRTFYSDSVK	GRAAGTFMS	GPLM_HC

Values reported by Li et al. 2023, doi:10.1038/s41467-023-39022-2 (FLAb copy).